Assay [1] has as its target T1, rMOR-1 (Rattus norvegicus, UniProt P33535). The class given is binding. To be noted: read-out: Ki Value rMOR-1.
The target of the next assay is T2, rMOR-1 (no E4) (Rattus norvegicus, UniProt P33535).
T2 construct: rMOR-1 no E 4; expressed in transfected cells
The assay is classed as binding. To be noted: read-out: Ki Value rMOR-1 (no E4).

Chains of the proteins cited; added tags and fusions are not shown. Residues count along the entry.
UniProt P33535, whole entry: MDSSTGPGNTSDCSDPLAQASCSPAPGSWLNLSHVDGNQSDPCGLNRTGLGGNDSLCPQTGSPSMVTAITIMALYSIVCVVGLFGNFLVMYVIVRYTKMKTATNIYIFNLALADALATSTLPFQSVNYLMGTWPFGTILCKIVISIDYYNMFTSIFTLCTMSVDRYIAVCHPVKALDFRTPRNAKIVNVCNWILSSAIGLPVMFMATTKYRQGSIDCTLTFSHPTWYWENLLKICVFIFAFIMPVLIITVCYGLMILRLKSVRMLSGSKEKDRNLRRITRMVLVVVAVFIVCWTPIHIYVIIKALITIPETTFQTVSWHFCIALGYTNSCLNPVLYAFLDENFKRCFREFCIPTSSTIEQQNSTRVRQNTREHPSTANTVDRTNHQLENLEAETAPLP
UniProt P33535, 1-386 limits assumed: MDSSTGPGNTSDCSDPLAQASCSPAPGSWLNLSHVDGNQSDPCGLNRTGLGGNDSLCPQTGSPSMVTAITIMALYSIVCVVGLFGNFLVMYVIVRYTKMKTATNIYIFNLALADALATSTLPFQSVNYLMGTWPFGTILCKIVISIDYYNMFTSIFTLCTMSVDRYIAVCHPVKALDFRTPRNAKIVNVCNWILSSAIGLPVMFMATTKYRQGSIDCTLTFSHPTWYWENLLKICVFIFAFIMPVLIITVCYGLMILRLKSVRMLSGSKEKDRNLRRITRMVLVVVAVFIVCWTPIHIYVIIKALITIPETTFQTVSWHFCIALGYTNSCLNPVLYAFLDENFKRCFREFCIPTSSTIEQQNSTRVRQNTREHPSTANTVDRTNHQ
UniProt P33535, 1-390 isoform P33535-2: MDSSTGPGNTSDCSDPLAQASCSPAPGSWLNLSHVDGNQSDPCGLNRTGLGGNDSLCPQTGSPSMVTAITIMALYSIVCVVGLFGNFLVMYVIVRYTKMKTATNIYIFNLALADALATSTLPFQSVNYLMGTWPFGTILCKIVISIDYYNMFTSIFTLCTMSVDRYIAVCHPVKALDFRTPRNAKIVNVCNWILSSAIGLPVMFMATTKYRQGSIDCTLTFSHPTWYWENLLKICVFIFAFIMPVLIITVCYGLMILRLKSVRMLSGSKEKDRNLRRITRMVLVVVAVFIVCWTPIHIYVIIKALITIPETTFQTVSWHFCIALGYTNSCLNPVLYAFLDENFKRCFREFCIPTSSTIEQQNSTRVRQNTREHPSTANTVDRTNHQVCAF
UniProt P33535, 1-451 isoform P33535-6: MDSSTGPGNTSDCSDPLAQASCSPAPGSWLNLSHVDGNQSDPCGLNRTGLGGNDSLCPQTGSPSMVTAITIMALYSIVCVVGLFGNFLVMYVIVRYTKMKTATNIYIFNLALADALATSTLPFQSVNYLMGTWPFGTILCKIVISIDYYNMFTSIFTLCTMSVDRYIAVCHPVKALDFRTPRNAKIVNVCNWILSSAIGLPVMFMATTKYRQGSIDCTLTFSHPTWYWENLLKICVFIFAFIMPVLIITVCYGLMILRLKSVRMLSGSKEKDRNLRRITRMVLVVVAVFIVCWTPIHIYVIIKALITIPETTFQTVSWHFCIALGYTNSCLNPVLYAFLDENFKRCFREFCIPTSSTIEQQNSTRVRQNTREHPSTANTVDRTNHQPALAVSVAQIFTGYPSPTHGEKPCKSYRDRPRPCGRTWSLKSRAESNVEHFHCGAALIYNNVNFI
UniProt P33535, 1-387 isoform P33535-8 I238V: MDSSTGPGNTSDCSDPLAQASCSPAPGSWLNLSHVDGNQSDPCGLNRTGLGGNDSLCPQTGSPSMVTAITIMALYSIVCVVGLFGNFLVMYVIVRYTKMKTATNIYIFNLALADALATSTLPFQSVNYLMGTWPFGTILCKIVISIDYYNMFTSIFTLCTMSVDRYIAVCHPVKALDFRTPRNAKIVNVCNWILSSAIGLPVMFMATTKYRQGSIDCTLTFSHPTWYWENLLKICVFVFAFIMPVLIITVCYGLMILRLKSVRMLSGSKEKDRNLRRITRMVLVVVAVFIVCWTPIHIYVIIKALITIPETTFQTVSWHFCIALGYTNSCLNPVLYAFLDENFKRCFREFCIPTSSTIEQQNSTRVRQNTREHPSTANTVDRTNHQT

Assay [2] has as its target T3, rMOR-1A (Rattus norvegicus, UniProt P33535). The class given is binding. The conditions noted are these: read-out: Ki Value rMOR-1A.
Assay [3] addresses T4, rMOR-1C1 (Rattus norvegicus, UniProt P33535). The assay is classed as binding. The conditions noted are these: read-out: Ki Value rMOR-1C1.
Assay [4] concerns the target T5, rMOR-1D (Rattus norvegicus, UniProt P33535). The assay is classed as binding. The conditions noted are these: read-out: Ki Value rMOR-1D.
The target of assay [5] is T1, rMOR-1. The assay is classed as biochemical.
The target in another assay is rMOR-1 (no Exon 4) (Rattus norvegicus, UniProt P33535). The class given is biochemical.
Assay [6] has as its target T3, rMOR-1A. The class given is biochemical.
In assay [7] the target is T4, rMOR-1C1. The assay is classed as biochemical.
For assay [8], the target named is T5, rMOR-1D. The class given is biochemical.
Another assay has as its target hMOR-1 (Homo sapiens, UniProt P35372). The assay is classed as binding. The conditions noted are these: read-out: Ki value hMOR-1 wt.
The next assay addresses T6, hMOR-1(exons 1-3) (Homo sapiens, UniProt P35372).
T6 construct: A cDNA fragment containing only exons 1, 2 and 3 was also generated by PCR; expressed in transfected cells
The class given is binding. To be noted: read-out: Ki value hMOR-1 w/o exon 4.

In another assay the target is hMOR-1A (Homo sapiens, UniProt P35372). The class given is binding. To be noted: read-out: Ki value hMOR-1A.
In the next assay the target is hMOR-1B1 (Homo sapiens, UniProt P35372). The assay is classed as binding. The conditions noted are these: read-out: Ki value hMOR-1B1.
The target in the next assay is hMOR-1B2 (Homo sapiens, UniProt P35372). The class given is binding. To be noted: read-out: Ki value hMOR-1B2.
The target in a further assay is hMOR-1B3 (Homo sapiens, UniProt P35372). The class given is binding. To be noted: read-out: Ki value hMOR-1B3.
For the next assay, the target named is hMOR-1B4 (Homo sapiens, UniProt P35372). The class given is binding. To be noted: read-out: Ki value hMOR-1B4.
A further assay addresses hMOR-1B5 (Homo sapiens, UniProt P35372). The class given is binding. The conditions noted are these: read-out: Ki value hMOR-1B5.
The next assay has as its target hMOR-1Y (Homo sapiens, UniProt P35372). The assay is classed as binding. The conditions noted are these: read-out: Ki value hMOR-1B6.

By EC50 is commonly meant the concentration at which the effect is half-maximal. Low values mean a more potent agent, high ones a less potent agent.

Endomorphin 1: the Ki was 4.1 ± 0.7 nM on rMOR-1 [1]; 4.4 ± 0.1 nM on rMOR-1 (no E4); 6.5 ± 0.3 nM on rMOR-1A [2]; 3.9 ± 0.1 nM at rMOR-1C1 [3]; 3.9 ± 0.4 nM on rMOR-1D [4]. For the same substance, the EC50 is 14 ± 4 nM on rMOR-1 [5]; 114 ± 11 nM at rMOR-1 (no Exon 4); 15 ± 3 nM on rMOR-1A [6]; 54 ± 8 nM at rMOR-1C1 [7]; 100 ± 26 nM on rMOR-1D [8].
Endomorphin 2: the Ki at hMOR-1 was 34.1 ± 25.4 nM; on hMOR-1(exons 1-3), 4.6 ± 1.3 nM; on hMOR-1A, 5.6 ± 3 nM; at hMOR-1B1 it was 5.4 ± 1.1 nM; at hMOR-1B2 it was 19.9 ± 2.2 nM; at hMOR-1B3 it was 6.3 ± 2.5 nM. Further, the Ki amounted to 22.5 ± 3.4 nM on hMOR-1B4, 9.6 ± 5.2 nM on hMOR-1B5 and 9.4 ± 5.1 nM at hMOR-1Y.

These data come from patent US7585941B2 (priority 2004, dated 2009).
